The results in this text go back to IntAct's records for PubMed 29892012.

First the molecules themselves.
B1: Zinc finger protein 366 (Homo sapiens), Q8N895 (parent)
chain: MQKEMKMIKDEDVHFDLAVKKTPSFPHCLQPVASRGKAPQRHPFPEALRGPFSQFRYEPPPGDLDGFPGVFEGAGSRKRKSMPTKMPYNHPAEEVTLALHSEENKNHGLPNLPLLFPQPPRPKYDSQMIDLCNVGFQFYRSLEHFGGKPVKQEPIKPSAVWPQPTPTPFLPTPYPYYPKVHPGLMFPFFVPSSSPFPFSRHTFLPKQPPEPLLPRKAEPQESEETKQKVERVDVNVQIDDSYYVDVGGSQKRWQCPTCEKSYTSKYNLVTHILGHSGIKPHACTHCGKLFKQLSHLHTHMLTHQGTRPHKCQVCHKAFTQTSHLKRHMMQHSEVKPHNCRVCGRGFAYPSELKAHEAKHASGRENICVECGLDFPTLAQLKRHLTTHRGPIQYNCSECDKTFQYPSQLQNHMMKHKDIRPYICSECGMEFVQPHHLKQHSLTHKGVKEHKCGICGREFTLLANMKRHVLIHTNIRAYQCHLCYKSFVQKQTLKAHMIVHSDVKPFKCKLCGKEFNRMHNLMGHMHLHSDSKPFKCLYCPSKFTLKGNLTRHMKVKHGVMERGLHSQGLGRGRIALAQTAGVLRSLEQEEPFDLSQKRRAKVPVFQSDGESAQGSHCHEEEEEDNCYEVEPYSPGLAPQSQQLCTPEDLSTKSEHAPEVLEEACKEEKEDASKGEWEKRSKGDLGAEGGQERDCAGRDECLSLRAFQSTRRGPSFSDYLYFKHRDESLKELLERKMEKQAVLLGI
B2: Zinc finger protein 366 (Homo sapiens), Q8N895 (parent)
chain: B1 chain
partner: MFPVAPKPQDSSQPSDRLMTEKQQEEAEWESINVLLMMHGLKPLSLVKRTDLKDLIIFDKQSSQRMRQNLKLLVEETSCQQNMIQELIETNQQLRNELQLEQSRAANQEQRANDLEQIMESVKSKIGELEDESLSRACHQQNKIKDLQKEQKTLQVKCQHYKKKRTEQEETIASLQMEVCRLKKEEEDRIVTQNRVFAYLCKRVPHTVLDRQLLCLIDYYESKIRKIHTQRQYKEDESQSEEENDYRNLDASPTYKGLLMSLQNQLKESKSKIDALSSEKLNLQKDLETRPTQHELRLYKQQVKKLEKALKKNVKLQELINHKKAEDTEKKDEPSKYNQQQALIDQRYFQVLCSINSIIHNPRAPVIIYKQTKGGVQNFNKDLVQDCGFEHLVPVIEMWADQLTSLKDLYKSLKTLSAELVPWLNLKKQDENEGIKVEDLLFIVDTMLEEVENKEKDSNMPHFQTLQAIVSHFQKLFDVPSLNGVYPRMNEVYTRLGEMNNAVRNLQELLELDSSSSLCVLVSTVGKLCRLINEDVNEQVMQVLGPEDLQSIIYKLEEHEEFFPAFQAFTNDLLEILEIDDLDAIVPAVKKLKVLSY

In one test the parent is B1. Particulars: with psa3_human PSMA3, P25788.
Regarding S485G, the “effect of a mutation on the interaction” value is “with no effect”.

The next test covers variants of B2. Particulars: with cep70_human CEP70, Q8NHQ1.
For the variant S485G, the “effect of a mutation on the interaction” value was “disrupting interaction strength”.
